Source: patent US9802996B2, “Glycosylated polypeptide and drug composition containing said polypeptide” (Glytech, Inc., priority 2011, dated 2017)

Sequences of proteins named here, by UniProt entry; tags and fusion partners are left off. A change or cut given only in a name is not applied to a line headed by its entry.
UniProt P35346: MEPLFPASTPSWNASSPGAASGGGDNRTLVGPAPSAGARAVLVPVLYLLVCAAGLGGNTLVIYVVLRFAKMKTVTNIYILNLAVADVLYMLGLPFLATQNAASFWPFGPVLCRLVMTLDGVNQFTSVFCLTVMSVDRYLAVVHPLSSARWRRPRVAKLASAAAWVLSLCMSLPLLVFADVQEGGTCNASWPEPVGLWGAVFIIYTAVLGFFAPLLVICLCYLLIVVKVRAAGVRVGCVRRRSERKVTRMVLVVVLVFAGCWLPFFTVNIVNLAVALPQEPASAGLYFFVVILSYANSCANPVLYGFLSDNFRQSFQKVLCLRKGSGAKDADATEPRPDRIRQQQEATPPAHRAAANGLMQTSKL
UniProt P30874: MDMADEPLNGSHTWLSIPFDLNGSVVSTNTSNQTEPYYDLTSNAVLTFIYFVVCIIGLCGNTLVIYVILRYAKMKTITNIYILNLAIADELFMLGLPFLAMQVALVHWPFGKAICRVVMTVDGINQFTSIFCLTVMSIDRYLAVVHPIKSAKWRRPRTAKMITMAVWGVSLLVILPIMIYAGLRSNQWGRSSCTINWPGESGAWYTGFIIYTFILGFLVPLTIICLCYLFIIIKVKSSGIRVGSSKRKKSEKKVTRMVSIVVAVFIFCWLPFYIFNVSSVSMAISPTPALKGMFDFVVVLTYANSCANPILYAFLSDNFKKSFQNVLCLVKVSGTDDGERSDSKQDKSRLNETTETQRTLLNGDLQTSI
UniProt P32745: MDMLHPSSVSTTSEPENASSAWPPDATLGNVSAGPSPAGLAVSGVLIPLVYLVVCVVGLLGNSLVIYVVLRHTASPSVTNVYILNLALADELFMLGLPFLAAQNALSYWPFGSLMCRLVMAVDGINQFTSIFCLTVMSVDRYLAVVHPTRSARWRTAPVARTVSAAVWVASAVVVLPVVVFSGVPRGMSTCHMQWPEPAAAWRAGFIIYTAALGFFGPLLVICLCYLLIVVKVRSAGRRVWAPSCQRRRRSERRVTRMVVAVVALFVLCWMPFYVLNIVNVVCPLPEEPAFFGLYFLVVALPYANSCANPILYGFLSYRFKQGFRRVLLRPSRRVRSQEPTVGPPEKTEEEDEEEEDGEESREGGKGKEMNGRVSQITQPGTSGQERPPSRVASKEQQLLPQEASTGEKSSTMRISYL
UniProt P31391: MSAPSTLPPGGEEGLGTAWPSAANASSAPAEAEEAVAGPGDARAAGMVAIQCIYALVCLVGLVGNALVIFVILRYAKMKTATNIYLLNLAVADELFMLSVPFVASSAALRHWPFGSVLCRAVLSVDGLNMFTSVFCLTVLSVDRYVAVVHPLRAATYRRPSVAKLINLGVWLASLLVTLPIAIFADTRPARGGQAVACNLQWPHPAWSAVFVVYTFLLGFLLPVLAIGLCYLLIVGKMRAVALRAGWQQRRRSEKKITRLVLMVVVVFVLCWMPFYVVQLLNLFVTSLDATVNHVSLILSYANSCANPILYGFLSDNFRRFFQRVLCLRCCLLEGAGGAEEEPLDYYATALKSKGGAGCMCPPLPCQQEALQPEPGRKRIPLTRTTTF
UniProt P30872: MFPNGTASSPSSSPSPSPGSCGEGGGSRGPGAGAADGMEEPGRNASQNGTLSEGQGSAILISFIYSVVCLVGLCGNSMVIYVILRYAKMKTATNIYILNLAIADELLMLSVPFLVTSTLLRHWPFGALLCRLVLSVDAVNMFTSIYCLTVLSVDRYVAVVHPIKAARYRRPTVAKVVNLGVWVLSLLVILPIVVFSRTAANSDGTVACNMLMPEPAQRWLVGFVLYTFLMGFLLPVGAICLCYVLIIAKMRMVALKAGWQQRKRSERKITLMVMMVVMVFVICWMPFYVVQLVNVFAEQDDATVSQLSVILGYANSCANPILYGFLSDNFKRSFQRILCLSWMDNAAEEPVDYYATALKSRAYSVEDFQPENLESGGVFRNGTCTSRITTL

Legend:
[1] = Pharmacokinetics test with rats (intravenous and subcutaneous administration); settings: rats; for AUC, intravenous administration: 40 nmol/kg; for bioavailability (BA): subcutaneous vs intravenous AUC; for MRT / T1/2: Tables 5B-5F (unit not given; Table 5A: min)
SSTR5 [2] = molecular target: T1, SSTR5 (Homo sapiens, UniProt P35346)
SSTR2 [3] = molecular target: T2, SSTR2 (Homo sapiens, UniProt P30874); experiment: Competitive binding assay with [125I]Tyr11-Somatostatin 14, SSTR2; settings: for Ki: read-out: Ki value against SSTR2, Example 69-2, Table 3B; for Ki value against SSTR2, folds that of SRIF14: Example 69-2
SSTR5 [4] = molecular target: T1, SSTR5; experiment: Agonist activity evaluation (cAMP production suppression), SSTR5 receptor expression cells; format: cell-based; set-up: host or cells: CHO-K1 cells
SSTR3 = SSTR3 (Homo sapiens, UniProt P32745); experiment: Competitive binding assay with [125I]Tyr11-Somatostatin 14, SSTR3; settings: for Ki: read-out: Ki value against SSTR3, Example 69-2, Table 3B
SSTR4 = SSTR4 (Homo sapiens, UniProt P31391); experiment: Competitive binding assay with [125I]Tyr11-Somatostatin 14, SSTR4
SSTR1 = SSTR1 (Homo sapiens, UniProt P30872); experiment: Competitive binding assay with [125I]Tyr11-Somatostatin 14, SSTR1; settings: Example 69-2
SSTR5 [5] = molecular target: T1, SSTR5; experiment: Competitive binding assay with [125I]Tyr11-Somatostatin 14, SSTR5; settings: Example 69-2
SSTR2 [6] = molecular target: T2, SSTR2
[7] = intravenous administration, Table 5A
[8] = subcutaneous administration, Table 5A
[9] = read-out: Ki value against SSTR4; Example 69-2, Table 3B
[10] = intravenous administration, Tables 5B-5F (unit not given; Table 5A: min · nM)
[11] = subcutaneous administration, Tables 5B-5F (unit not given; Table 5A: nM)

Work on A9C(disialo)-SRIF28 [Example 3] yielded an AUC [1, 7] of 4083 ± 515 nM·min, a C0 [1, 7] of 547 ± 211 nM and an AUC [1, 8] of 2462 ± 64.0 nM·min. For the same substance, the Cmax [1, 8] was 30.2 ± 5.05 nM and the IC50 (SSTR5 [2]) was 0.473 nM.
For “C(disialo)-PEG linker-SRIF14 [Example 45]”, the Ki (SSTR2 [3]) was 0.0536 to 6.58 nM, the IC50 (SSTR5 [4]; read-out: IC50 of cAMP production suppressing action (agonist activity), SSTR5; CHO-K1 receptor expression cells, 10 μM forskolin) was 0.18 nM and the “AUC increase compared to the non-glycosylated form SRIF14” value ([1]; administered intravenously) was 14-30 folds. The “t1/2 extension compared to the non-glycosylated form SRIF14” value ([1]; administered intravenously) was 22-33 folds, the Ki (SSTR3) was 0.16 to 13.8 nM and the Ki (SSTR4; [9]) was 1.39 to 172 nM.
For F25C(disialo)-SRIF28 [Example 40], the “Ki value against SSTR2, folds that of SRIF14” value (SSTR2 [3]) was 310-5300 folds, the “Ki value against SSTR1, folds that of SRIF14” value (SSTR1) was 310-5300 folds and the “Ki value against SSTR3, folds that of SRIF14” value (SSTR3; Example 69-2) was 310-5300 folds. It also gave an IC50 (SSTR5 [5]; read-out: SSTR5 IC50, Table 3B) of 58 nM.
For “N5C(disialo)•A9C(disialo)-SRIF28 [Example 23]”, the AUC [1, 7] was 4465 ± 833 nM·min, the C0 [1, 7] was 664 ± 104 nM and the “AUC, intravenous administration” value [1] was 4029 to 4465 nM·min. The AUC [1, 8] was 3450 ± 784 nM·min, the Cmax [1, 8] was 32.5 ± 7.06 nM and the “bioavailability (BA)” value [1] was 77-85%. For the same substance, the Ki (SSTR2 [6]) was 0.424 nM.
In the case of S1C(disialo(amide))-SRIF28 [Example 60], the Ki (SSTR2 [3]) is reported as 0.0536 to 6.58 nM, the “AUC increase compared to the non-glycosylated form SRIF28” value ([1]; administered intravenously) is reported as 7-12 folds and the “t1/2 extension compared to the non-glycosylated form SRIF28” value ([1]; administered intravenously) is reported as 11-14 folds. The Ki (SSTR3) was 0.16 to 13.8 nM and the Ki (SSTR4; [9]) was 1.39 to 172 nM.
For “S1C(disialo(aminoethylamide))-SRIF28 [Example 59]”, the Ki (SSTR2 [3]) was 0.0536 to 6.58 nM, the “AUC increase compared to the non-glycosylated form SRIF28” value ([1]; administered intravenously) was 7-12 folds and the “t1/2 extension compared to the non-glycosylated form SRIF28” value ([1]; administered intravenously) was 11-14 folds. The Ki (SSTR3) was 0.16 to 13.8 nM and the Ki (SSTR4; [9]) was 1.39 to 172 nM.
S1C(disialo)-F25Y-SRIF28 [Example 43] gave a Ki (SSTR2 [3]) of 0.0536 to 6.58 nM, an AUC [1, 10] of 3538 and a C0 ([1]; intravenous administration, Tables 5B-5F (unit not given; Table 5A: nM)) of 412. It also gave an AUC ([1]; subcutaneous administration, Tables 5B-5F (unit not given; Table 5A: min · nM)) of 2725, a Cmax [1, 11] of 47.8 and a Ki (SSTR3) of 0.16 to 13.8 nM. It also gave a Ki (SSTR4; [9]) of 1.39 to 172 nM.
For S1C(disialo)-SRIF28 [Example 1], the Ki (SSTR2 [3]) was 0.0536 to 6.58 nM, the “AUC increase compared to the non-glycosylated form SRIF28” value ([1]; administered intravenously) was 8-23 folds and 11 folds and the “t1/2 extension compared to the non-glycosylated form SRIF28” value ([1]; administered intravenously) was 13-18 folds and 13 folds. The AUC [1, 7] was 4855 ± 1030 nM·min, the C0 [1, 7] was 686 ± 363 nM and the AUC [1, 10] was 5190. For the same substance, the MRT ([1]; intravenous administration) was 19.1, the T1/2 ([1]; intravenous administration) was 17.7 and the AUC [1, 8] was 1773 ± 281 nM·min. It also gave a Cmax [1, 8] of 28.9 ± 3.23 nM, an MRT ([1]; subcutaneous administration) of 49.2 and a T1/2 ([1]; subcutaneous administration) of 31.2. For the same substance, the Cmax [1, 11] was 30.1, the “bioavailability (BA)” value [1] was 37% and the Ki (SSTR3) was 0.16 to 13.8 nM. For the same substance, the IC50 (SSTR3; read-out: SSTR3 IC50, Table 3B, Example 69-2) was 1.98 nM and the Ki (SSTR4; [9]) was 1.39 to 172 nM.
In the case of “S1C(disialo)•R13C(disialo)-SRIF28 [Example 22]”, the AUC [1, 7] is reported as 4029 ± 184 nM·min, the C0 [1, 7] is reported as 822 ± 106 nM and the “AUC, intravenous administration” value [1] is reported as 4029 to 4465 nM·min. For the same substance, the AUC [1, 8] was 3407 ± 436 nM·min, the Cmax [1, 8] was 38.7 ± 8.73 nM and the “bioavailability (BA)” value [1] was 77-85%. It also gave a Ki (SSTR2 [6]) of 3.33 nM.
In the case of S1C(trisialo)-SRIF28 [Example 57], the Ki (SSTR2 [3]) is reported as 0.0536 to 6.58 nM, the IC50 (SSTR5 [4]; CHO-K1 receptor expression cells, 10 μM forskolin; read-out: IC50 of cAMP production suppressing action (agonist activity), SSTR5) is reported as 0.095 nM and the Ki (SSTR3) is reported as 0.16 to 13.8 nM. It also gave a Ki (SSTR4; Example 69-2, Table 3B; read-out: Ki value against SSTR4) of 1.39 to 172 nM.
For T26C(disialo)-SRIF28 [Example 12], the “Ki value against SSTR2, folds that of SRIF14” value (SSTR2 [3]) was 280-1600 folds and the “Ki value against SSTR5, folds that of SRIF14” value (SSTR5 [5]) was 280-1600 folds.

Where “and” joins values, the source holds several entries; their conditions need not be identical. Identical values can stand only once. Like-named read-outs stand apart in the source and are kept apart here.
